Source: patent US7732424B2, “Purine derivatives and methods of use thereof” (Inotek Pharmaceuticals Corporation, priority 2005, dated 2010)

Chains of the proteins cited; added tags and fusions are not shown.
UniProt P30542, whole entry: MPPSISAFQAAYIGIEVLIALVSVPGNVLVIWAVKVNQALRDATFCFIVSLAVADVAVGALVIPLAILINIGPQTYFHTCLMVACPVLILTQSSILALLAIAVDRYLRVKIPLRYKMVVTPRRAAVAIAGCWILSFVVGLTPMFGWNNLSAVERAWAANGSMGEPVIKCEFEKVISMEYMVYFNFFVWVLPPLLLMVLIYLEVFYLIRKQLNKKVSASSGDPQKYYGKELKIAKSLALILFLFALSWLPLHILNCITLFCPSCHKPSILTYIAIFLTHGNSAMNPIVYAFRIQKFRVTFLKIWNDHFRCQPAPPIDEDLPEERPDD

Molecular target: human recombinant A1 adenosine receptor (Homo sapiens, UniProt P30542)
Test: Adenosine A1 receptor binding, displacement of [^3H]CCPA in transfected CHO cells
Conditions: A1 versus A2A and A3, from Table 2
Method: Membranes for radioligand binding experiments were prepared from fresh or frozen cells as described in Klotz et al., Naunyn-Schmiedeberg's Arch. Pharmacol., 357:1-9 (1998). The cell suspension was then homogenized in ice-cold hypotonic buffer (5 mM Tris/HCl, 2 mM EDTA, pH 7.4) and the resultant homogenate was spun for 10 minutes (4° C.) at 1,000 g. The membranes were then sedimented from the supernatant for 30 minutes at 100,000 g and resuspended in 50 mM Tris/HCl buffer pH 7.4 (for A3 adenosine receptors: 50 mM Tris/HCl, 10 mM MgCl2, 1 mM EDTA, pH 8.25), frozen in liquid nitrogen at a protein concentration of 1-3 mg/mL and stored at −80° C.
Nonspecific binding was determined in the presence of 100 μM R-PIA and 1 mM theophylline, respectively. For details see Klotz et al., Naunyn-Schmiedeberg's Arch. Pharmacol., 357:1-9, 1998. All binding data were calculated by non-linear curve fitting using the program SCTFIT (De Lean et al., Mol. Pharm. 1982, 21:5-16).

OC[C@H]1O[C@@H](n2cnc3c(NC4(CO)CCCC4)ncnc32)[C@H](O)[C@@H]1O [I′-1]
Selectivity of binding for adenosine A1 receptor: selectively bind the adenosine A1 receptor
